For assay [1], the system named is Rat pheochromocytoma cells transfected with M1 mAChR. Nature of the assay: Neurite outgrowth response. Format: cell-based. To be noted: read-out: Maximal response, percent of cells with neurites. The procedure:
Rat pheochromocytoma cells transfected with M1 mAChR cells were grown as described in Gurwitz et al, (NeuroReport 6, 485,1995). For determination of neurite outgrowth, cells plated in six-well plates were used 3–5 days after-plating. Growth factors were added 1 day after plating and muscarinic agonists were added for the last 24 hrs.
Cells were observed under an inverted microscope. The percent of cells with neurite longer than cell diameter were scored in three random fields of several hundred cells from each well. Results were expressed as a percent of cells with neurites. Treatments were performed in triplicate cells. Both NGF (50 ng/ml) and EGF (100 ng/ml) were added 1 day after plating. Muscarinic agonists were added 24 hours before scoring.

The chains behind the UniProt entries cited, without tags or fusion partners. Where a name states a change or a piece, a line headed by the entry shows the natural chain unless it says otherwise.
UniProt P08482: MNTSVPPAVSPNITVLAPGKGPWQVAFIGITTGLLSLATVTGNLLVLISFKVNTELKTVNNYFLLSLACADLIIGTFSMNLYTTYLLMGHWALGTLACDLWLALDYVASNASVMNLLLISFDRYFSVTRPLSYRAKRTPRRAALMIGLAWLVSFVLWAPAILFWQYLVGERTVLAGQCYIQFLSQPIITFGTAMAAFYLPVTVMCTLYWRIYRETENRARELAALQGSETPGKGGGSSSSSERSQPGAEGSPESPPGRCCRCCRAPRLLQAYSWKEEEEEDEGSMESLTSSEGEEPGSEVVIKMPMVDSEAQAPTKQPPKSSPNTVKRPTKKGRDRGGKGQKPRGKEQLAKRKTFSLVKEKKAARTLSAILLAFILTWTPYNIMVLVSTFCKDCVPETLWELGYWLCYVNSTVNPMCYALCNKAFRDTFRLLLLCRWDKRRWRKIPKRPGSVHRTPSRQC

For assay [2] the test system is unchanged. The format is cell-based. To be noted: β-A25-35 (1 μM), 24 hrs, serum-deprived. The procedure:
Confluent rat pheochromocytoma cells transfected with the M1 mAChR cultures were detached with trypsin, washed and plated in 24-well, 6-well, 60-mm or 100-mm plates that were precoated with rat tail collagen (Sigma, Israel). Several experiments were performed in serum-free medium. For 3-(4,5-dimethylthiazol-2-yl)-2,5-diphenyl-tetrazolium bromide (MTT) assay, cells (1.5×10^4) were plated in 96-well collagen-precoated plates, in serum-free medium, with or without various drugs for 24 hours. For differentiation, cells were grown in the presence of 1% FCS and 1% HS, with addition of 50 ng/ml NGF for 7 days, to cause full differentiation. […] After 7 days, cells were washed and the medium was either replaced to serum-free, or cells were detached and replated in serum-free medium. Cells in serum-free medium were treated either with Aβ peptides that were previously “aged” or with H2O2. Tested compounds were added together with the insults for the indicated time, unless otherwise stated.
Cells were plated in 96-well plates in 100 μl medium. […] Plates were read using ELISA reader at a wavelength of 570 nm.
The MTT assay measures primary early changes within the cells, reflecting the integrity of the electron transport chain and provides a readout of cellular redox activity. […]

For assay [3], the system named is cells transfected with M1 mAChR. Put plainly: Protection from H2O2-induced toxicity. Format: cell-based, rat. As for the experimental part:
(§1) Several experiments were performed in serum-free medium.
Cells were plated in 96-well plates in 100 μl medium. […] Plates were incubated for 2 hrs at 37° C. followed by hydrocholoric acid-isopropanol addition (100 μl of 0.04N HCl/isopropanol). Plates were read using ELISA reader at a wavelength of 570 nm.

Assay [4] has the same test system. Put plainly: Apoptosis (DAPI, TUNEL, FACS) after starvation, Aβ or H2O2. The format is cell-based, rat. As for the experimental part: as §1
Cells were grown and treated on glass coverslips.
Apoptotic cells were identified as the pre-G1 phase.

The next assay has as its target T1, M1 mAChR (Rattus norvegicus, UniProt P08482).
T1 construct: expressed in transfected cells; elsewhere rat pheochromocytoma cells
Put plainly: α-APPs secretion in cell cultures stably transfected with the M1 mAChR. Format: cell-based. The procedure: Cells were plated in 6 well culture plates and used at the age of 3–5 days after plating. […] Cells exposed to medium alone are referred as controls.
Cell supernatants were collected into Eppendorff tubes containing a cocktail of protease inhibitors (5 units/ml aprotinin, […], […] and 10^−4M Phenylmethylsulfonylfluoride (PMSF, a protease inhibitor); Sigma, USA). The collected media were concentrated with Centricon tubes (Amicon, Beverly, Mass., USA) and kept frozen for α-APPs secretion determination. Equal amounts of protein (50–100 μg) were loaded and separated on 10% sodium dodecyl sulfate-polyacrylamide gel electrophoresis (SDS-PAGE). Followed by western blotting onto nitrocellulose membrane, blocked by fat-free milk, and probed for 24 hours at 4° C., with anti-Alzheimer's precursor protein, A4 monoclonal antibody 22C11 (0.25 μg/ml; Boehringer Mannheim, Germany). The nitrocellulose membranes were washed and incubated for 2 hours at room temperature with peroxidase-linked goat anti-mouse IgG antibodies (Jackson Immunoresearch, USA), followed by extensive washout and staining with enhanced chemiluminescence detection system (Amersham). Quantitative evaluation of the immunoreactive bands, on the exposed films, was performed by video-imaging densitometry (Gel-aid software; Galai Co., Israel). APPs levels were expressed as x-fold increase over basal levels.

This is an account of results in patent US7049321B2, “Methods and pharmaceutical compositions for treatment of central and peripheral nervous system disorders and compounds useful therefor” (Israel Institute for Biological Research, priority 2002, dated 2006).

For `C[N+](C)(C)CCOC(N)=O` [carbachol, reference compound], the Emax in assay [1] worked out at 80%. Also, in assay [2], the “Cell death induced by β-A25-35” value is given as “significantly attenuated”. Besides, the “Protection from H2O2-induced toxicity” value in assay [3] is “protect the cells”. For the same compound, the “Apoptotic death during starvation (FACS)” value in assay [4] was “protected cells from apoptotic death”. Moreover, the “Apoptotic population after β-amyloid (FACS)” value in assay [4] (β-Amyloid 25–35 or 1–42) is “reduced the apoptotic population significantly”.
As to deprenyl [reference compound], the “α-APPs secretion, comparison in words” value at M1 mAChR is “not effective”.
